Results as given in ChEMBL document CHEMBL6127148, “Discovery of l-Lysine Dioxalate (LH1513) as a Novel Inhibitor of Calcium Oxalate Crystallization for Hyperoxaluria” (ACS Med Chem Lett, 2024).

Tests used:
Calcium oxalate [1] = assay: Potency index, ratio of citrate EC50 to test compound EC50 for inhibition of calcium oxalate crystallization in supersaturated solution of CaOx containing of 250 uM of CaCl2 and 250 uM of Na2C2O4 incubated for 72 hrs at pH 6.8 HEPES buffer by fluorescence-based assay
Calcium oxalate [2] = assay: Potency index, ratio of citrate EC50 to test compound EC50 for inhibition of calcium oxalate crystallization in supersaturated solution of CaOx containing of 1 mM of CaCl2 and 250 uM of Na2C2O4 incubated for 72 hrs at pH 6.8 HEPES buffer by spectrophotometric method
Calcium oxalate [3] = assay: Potency index, ratio of pyruvate EC50 to test compound EC50 for inhibition of calcium oxalate crystallization in supersaturated solution of CaOx containing of 1 mM of CaCl2 and 250 uM of Na2C2O4 incubated for 72 hrs at pH 6.8 HEPES buffer by spectrophotometric method
Calcium oxalate [4] = assay: Inhibition of calcium oxalate crystallization in COM (010) face assessed as inhibition of growth on the (021) steps by measuring fold increase at EC50 concentration incubated for 20 min by atomic force microscopic analysis relative to citrate
Calcium oxalate [5] = assay: Potency index, ratio of pyruvate EC50 to test compound EC50 for inhibition of calcium oxalate crystallization in supersaturated solution of CaOx containing of 250 uM of CaCl2 and 250 uM of Na2C2O4 incubated for 72 hrs at pH 6.8 HEPES buffer by fluorescence-based assay
Calcium oxalate [6] = assay: Selectivity ratio of EC50 for inhibition of calcium oxalate crystallization in supersaturated solution of CaOx containing of 1 mM of CaCl2 and 250 uM of Na2C2O4 to inhibition of calcium oxalate crystallization in supersaturated solution of CaOx containing of 250 uM of CaCl2 and 250 uM of Na2C2O4

Row | Structure (SMILES) | Ratio EC50 (Calcium oxalate [1]) | Ratio EC50 (Calcium oxalate [2]) | Ratio EC50 (Calcium oxalate [3]) | fold change (FC) (Calcium oxalate [4]) | Ratio EC50 (Calcium oxalate [5]) | Ratio EC50 (Calcium oxalate [6])
1 | NCCNC(=O)C(=O)O | 22 |  |  |  |  | 
2 | CC(=O)C(=O)O [PYRUVATE SODIUM] | 25 | 1.7 |  |  |  | 
3 | O=C([O-])C(=O)NCCCC[C@H](NC(=O)C(=O)[O-])C(=O)[O-].[Na+].[Na+].[Na+] | 115 | 10 | 6 | 3 | 4.5 | 3
4 | O=C(O)C(=O)NCCNC(=O)C(=O)O | 66 |  |  |  |  | 
